Protein sequences, listed by entry. Tags and fused reporters are not part of them.
UniProt P11712, whole entry: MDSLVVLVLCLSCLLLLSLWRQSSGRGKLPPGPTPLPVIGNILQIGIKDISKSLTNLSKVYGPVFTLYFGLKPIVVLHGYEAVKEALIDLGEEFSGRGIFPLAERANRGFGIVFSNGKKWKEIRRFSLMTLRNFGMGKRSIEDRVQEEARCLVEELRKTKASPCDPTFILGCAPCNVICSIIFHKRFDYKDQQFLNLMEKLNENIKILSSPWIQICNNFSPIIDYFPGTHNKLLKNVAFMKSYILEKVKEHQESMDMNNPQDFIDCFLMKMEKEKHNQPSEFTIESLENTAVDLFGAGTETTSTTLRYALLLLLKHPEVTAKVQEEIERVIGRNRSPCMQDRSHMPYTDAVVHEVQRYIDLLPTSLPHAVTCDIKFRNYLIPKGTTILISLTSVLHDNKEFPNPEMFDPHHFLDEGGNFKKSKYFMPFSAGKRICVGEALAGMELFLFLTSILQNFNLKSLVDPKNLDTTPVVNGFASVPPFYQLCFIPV
UniProt P08684, whole entry: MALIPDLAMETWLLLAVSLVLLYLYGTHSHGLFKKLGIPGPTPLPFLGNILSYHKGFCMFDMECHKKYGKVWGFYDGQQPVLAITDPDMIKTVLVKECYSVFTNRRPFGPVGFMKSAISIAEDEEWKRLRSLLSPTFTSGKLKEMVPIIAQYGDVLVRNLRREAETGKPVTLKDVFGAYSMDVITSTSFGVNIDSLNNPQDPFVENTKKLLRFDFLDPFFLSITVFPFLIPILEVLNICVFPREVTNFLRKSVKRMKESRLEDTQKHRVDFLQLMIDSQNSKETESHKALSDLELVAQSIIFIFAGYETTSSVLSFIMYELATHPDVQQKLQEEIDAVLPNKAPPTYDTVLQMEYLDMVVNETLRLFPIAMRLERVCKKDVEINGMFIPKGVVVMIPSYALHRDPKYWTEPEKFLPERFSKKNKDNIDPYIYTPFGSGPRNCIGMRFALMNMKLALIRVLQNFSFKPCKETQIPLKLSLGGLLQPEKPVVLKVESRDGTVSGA
UniProt P05177, whole entry: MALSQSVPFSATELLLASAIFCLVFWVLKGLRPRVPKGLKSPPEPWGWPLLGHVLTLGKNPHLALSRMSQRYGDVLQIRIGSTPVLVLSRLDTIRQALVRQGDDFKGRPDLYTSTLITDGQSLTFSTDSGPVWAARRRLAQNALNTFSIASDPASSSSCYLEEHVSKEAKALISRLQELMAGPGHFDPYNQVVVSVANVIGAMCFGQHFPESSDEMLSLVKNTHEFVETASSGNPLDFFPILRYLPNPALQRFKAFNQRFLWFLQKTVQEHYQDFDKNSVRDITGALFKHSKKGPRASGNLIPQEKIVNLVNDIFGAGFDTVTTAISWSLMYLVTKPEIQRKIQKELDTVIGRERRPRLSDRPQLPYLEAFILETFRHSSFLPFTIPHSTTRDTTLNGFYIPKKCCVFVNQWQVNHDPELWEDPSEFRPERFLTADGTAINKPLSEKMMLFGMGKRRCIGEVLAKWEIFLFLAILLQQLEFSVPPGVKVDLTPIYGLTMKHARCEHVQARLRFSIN
UniProt P10632, whole entry: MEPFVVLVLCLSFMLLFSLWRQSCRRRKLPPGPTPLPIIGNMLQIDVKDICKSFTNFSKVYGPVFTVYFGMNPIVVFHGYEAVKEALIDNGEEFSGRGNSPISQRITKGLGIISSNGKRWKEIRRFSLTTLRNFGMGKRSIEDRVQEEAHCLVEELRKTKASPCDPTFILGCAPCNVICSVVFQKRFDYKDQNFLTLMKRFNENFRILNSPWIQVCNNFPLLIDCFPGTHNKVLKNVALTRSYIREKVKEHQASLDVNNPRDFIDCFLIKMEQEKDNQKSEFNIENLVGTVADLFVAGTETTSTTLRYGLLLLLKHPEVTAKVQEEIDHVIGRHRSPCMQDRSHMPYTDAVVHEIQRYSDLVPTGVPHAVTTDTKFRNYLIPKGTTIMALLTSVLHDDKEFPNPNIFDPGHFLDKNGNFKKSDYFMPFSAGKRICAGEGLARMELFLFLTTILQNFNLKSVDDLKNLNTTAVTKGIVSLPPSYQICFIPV
UniProt P10635, whole entry: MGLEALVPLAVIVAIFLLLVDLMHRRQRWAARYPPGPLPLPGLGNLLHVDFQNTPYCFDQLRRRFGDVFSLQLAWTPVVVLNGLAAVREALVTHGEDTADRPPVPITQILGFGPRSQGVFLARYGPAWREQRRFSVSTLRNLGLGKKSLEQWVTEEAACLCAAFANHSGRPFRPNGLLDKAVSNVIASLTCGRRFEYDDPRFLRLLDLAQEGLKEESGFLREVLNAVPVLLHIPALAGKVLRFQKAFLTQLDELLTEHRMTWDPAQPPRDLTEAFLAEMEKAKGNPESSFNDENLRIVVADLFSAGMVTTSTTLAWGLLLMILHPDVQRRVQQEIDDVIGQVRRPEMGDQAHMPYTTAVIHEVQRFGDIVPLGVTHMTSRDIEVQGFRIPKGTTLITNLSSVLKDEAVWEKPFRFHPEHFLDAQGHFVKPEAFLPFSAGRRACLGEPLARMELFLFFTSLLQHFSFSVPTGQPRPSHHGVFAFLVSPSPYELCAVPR

According to US10183937B2:

Columns and labels:
[1] = Human liver cytosol stability assay; format: in vitro ADME; settings: 4 h incubation
CYP2C9 = CYP2C9 (Homo sapiens (Human), UniProt P11712); test: CYP inhibition assay in human liver microsomes, CYP2C9; format: in vitro ADME; settings: read-out: CYP2C9 IC50, probe diclofenac
CYP3A4 [2] = molecular target: T1, CYP3A4 (Homo sapiens (Human), UniProt P08684); test: CYP inhibition assay in human liver microsomes, CYP3A4; format: in vitro ADME; settings: read-out: CYP3A4 IC50, probe midazolam
CYP3A4 [3] = molecular target: T1, CYP3A4; test: Pre-incubation CYP inhibition assay; format: in vitro ADME; settings: read-out: CYP3A4 with preincubation IC50; 30 min pre-incubation
CYP1A2 = CYP1A2 (Homo sapiens (Human), UniProt P05177)
CYP2C8 = CYP2C8 (Homo sapiens (Human), UniProt P10632)
CYP2D6 = CYP2D6 (Homo sapiens (Human), UniProt P10635)

In the case of `Cc1ccc(-c2cc(OC3CCOC3)cc(C(=O)N[C@H](C)c3ccc(C)nc3)c2)nc1` (stereo partly shown), the “Test compound turnover after 4 h” value [1] is reported as 55%, the IC50 (CYP2C9) is reported as 19.8 µM and the IC50 (CYP3A4 [2]) is reported as over 20 µM. It also gave an IC50 (CYP3A4 [3]) of 18 µM, an IC50 (CYP1A2) of over 20 µM and an IC50 (CYP2C8) of over 20 µM. For the same molecule, the IC50 (CYP2D6) was over 20 µM.
